Here are results for 1 molecule from publication PMC3796951 (Psychopharmacology, 2012).

By UniProt entry, the sequences of proteins in these tests, tags left out. Where a name states a change or a piece, a line headed by the entry shows the natural chain unless it says otherwise.
UniProt P28221: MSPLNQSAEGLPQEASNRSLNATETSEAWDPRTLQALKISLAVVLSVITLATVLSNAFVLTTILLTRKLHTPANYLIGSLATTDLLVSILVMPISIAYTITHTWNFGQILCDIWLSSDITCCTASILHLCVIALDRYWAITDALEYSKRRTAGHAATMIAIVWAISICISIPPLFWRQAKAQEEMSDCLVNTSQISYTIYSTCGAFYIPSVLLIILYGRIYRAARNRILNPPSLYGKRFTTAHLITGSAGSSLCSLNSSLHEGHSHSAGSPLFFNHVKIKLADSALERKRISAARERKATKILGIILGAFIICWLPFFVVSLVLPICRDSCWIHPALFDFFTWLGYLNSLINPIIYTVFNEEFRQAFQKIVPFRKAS
UniProt P50406, whole entry: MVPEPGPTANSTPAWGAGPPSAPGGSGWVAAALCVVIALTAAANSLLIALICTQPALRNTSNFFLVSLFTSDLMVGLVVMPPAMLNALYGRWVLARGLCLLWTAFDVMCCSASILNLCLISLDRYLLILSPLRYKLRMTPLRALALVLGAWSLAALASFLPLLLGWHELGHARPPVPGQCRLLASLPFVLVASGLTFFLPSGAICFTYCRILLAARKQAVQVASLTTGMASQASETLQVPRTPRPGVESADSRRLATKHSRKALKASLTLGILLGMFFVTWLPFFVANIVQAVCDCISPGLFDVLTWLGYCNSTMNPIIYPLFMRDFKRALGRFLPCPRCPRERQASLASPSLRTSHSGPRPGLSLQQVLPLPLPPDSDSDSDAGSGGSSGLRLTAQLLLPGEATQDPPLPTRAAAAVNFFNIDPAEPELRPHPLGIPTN

One may read the Ki as a measure of affinity in units of concentration, obtained from inhibition or displacement. The low end stands for higher affinity, the high end for lower affinity.

One assay concerns the target 5-HT1D (Homo sapiens, UniProt P28221). Briefly: biochemical.
A further assay concerns the target 5-HT6 (Homo sapiens, UniProt P50406). The experiment in a line: Radioligand binding.
Another assay deals with T1, 5-HT2C (Rattus norvegicus, UniProt P08909).
T1 sequence (P08909 33-460): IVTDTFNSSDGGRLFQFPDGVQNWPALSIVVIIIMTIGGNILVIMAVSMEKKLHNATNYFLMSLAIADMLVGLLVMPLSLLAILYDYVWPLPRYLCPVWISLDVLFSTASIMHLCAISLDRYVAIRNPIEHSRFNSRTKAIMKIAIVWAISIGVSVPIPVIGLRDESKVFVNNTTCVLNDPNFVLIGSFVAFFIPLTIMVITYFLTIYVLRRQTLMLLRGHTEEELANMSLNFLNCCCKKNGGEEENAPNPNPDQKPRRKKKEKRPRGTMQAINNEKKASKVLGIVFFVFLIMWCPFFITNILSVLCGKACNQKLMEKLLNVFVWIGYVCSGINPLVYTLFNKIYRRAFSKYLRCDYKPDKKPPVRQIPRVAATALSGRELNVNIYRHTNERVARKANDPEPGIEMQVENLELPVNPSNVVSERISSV
The experiment in a line: Radioligand binding.

In the case of `COc1ccc2[nH]cc(CCN(C)C)c2c1.O=C(O)C(=O)O` [5-MeO-DMT, 5-Methoxy-N, N-dimethyltryptamine oxalate], the results for the Ki on 5-HT1D, at 5-HT6 and on 5-HT2C were 2.3 nM, 6.5 nM and 418 nM, respectively.
